Measured values reported in ChEMBL document CHEMBL1123812, “Pyrroloisoquinoline antidepressants. 2. In-depth exploration of structure-activity relationships” (J Med Chem, 1987).

Chains of the proteins cited; added tags and fusions are not shown. Lines headed by an entry give the natural chain unless they say otherwise; changes in a name come on top.
UniProt P61169, whole entry: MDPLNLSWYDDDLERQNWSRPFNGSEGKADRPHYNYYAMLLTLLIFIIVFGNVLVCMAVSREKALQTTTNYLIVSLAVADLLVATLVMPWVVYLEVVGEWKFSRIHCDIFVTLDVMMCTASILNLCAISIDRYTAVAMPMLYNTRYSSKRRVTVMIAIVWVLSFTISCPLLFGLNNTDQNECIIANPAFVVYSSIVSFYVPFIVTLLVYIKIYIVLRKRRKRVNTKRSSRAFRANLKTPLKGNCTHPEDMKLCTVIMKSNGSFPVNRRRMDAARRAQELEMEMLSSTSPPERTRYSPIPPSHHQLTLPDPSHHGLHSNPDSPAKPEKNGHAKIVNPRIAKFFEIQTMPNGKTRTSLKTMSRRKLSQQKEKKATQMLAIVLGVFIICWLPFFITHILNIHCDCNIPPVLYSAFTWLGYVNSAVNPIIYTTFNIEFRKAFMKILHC
UniProt P30994: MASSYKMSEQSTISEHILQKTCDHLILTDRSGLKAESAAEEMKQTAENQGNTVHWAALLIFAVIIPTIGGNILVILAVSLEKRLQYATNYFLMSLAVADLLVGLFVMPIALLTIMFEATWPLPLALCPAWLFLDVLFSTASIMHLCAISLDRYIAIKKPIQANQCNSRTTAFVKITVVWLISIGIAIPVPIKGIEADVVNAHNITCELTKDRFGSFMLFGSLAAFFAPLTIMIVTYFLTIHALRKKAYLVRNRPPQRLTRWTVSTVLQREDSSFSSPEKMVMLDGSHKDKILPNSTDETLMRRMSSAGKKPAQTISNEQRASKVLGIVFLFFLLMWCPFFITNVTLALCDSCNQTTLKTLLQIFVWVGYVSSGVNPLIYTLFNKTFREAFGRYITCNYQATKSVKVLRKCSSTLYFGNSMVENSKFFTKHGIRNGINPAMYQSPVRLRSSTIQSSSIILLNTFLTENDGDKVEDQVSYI
UniProt P08909: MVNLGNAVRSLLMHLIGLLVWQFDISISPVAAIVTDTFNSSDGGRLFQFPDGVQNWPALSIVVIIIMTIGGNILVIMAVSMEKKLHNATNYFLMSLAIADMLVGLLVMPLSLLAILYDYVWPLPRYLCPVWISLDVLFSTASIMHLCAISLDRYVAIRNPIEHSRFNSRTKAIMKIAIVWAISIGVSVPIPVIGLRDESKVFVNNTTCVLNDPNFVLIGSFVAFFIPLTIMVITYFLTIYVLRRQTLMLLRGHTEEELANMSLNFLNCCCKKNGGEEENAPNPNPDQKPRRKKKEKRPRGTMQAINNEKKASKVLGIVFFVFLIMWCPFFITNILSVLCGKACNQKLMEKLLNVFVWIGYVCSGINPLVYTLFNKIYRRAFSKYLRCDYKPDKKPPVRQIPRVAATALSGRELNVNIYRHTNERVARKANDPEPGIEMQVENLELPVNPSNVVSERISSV
UniProt P14842: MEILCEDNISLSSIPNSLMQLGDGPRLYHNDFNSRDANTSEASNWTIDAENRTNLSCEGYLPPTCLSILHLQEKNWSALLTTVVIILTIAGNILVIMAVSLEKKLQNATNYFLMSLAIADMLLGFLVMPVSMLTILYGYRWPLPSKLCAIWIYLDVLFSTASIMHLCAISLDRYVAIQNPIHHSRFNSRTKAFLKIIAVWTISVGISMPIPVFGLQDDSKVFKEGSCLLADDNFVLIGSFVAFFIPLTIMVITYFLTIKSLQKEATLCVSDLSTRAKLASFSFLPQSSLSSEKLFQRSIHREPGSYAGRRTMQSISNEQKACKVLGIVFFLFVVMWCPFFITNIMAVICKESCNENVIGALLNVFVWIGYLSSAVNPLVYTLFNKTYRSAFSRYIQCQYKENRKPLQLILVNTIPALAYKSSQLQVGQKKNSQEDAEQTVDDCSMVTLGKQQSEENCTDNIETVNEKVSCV

Key:
D(2) dopamine receptor = D(2) dopamine receptor (Rattus norvegicus, UniProt P61169); test: Binding affinity towards Dopamine receptor D2 at 1.0 uM concentration
[1] = molecular target: Serotonin 2 (5-HT2) receptor (Rattus norvegicus, UniProt P30994+P08909+P14842); test: Binding affinity towards 5-hydroxytryptamine 2 receptor; type: protein assay

Row | SMILES | Ki (D(2) dopamine receptor) [nM] | Ki [1] [nM]
1 | CN1CCN2c3ccccc3Cc3ccccc3C2C1 (configuration not stated) [MIANSERIN] | 828 | 
2 | CN(C)CCCN1c2ccccc2CCc2ccccc21 [IMIPRAMINE] |  | 23
